Test results taken from US20140221499A1, “NOVEL RODENT CONTROL AGENTS AND USES THEREOF” (priority 2011, published 2014).

System: mouse olfactory sensory neurons
Assay: Confocal calcium imaging of olfactory sensory neurons in tissue slices
Type: cell-based
Experimental: The mammalian olfactory system encodes odor identity using combinations of olfactory receptors (11). […] Here, we used a confocal imaging strategy to record cytosolic calcium transients of single sensory neurons in real time. Viability of analyzed neurons was determined after odor exposures by KCl-induced depolarization.
Confocal calcium imaging of olfactory sensory neurons in tissue slices. Recordings were performed as described (Spehr M, et al. (2006) Essential role of the main olfactory system in social recognition of major histocompatibility complex peptide ligands. J Neurosci 26(7):1961-1970) with the following modifications. For calcium sensitive dye loading, slices of olfactory epithelium were incubated (30 min, 4° C.) in HEPES solution (in mM: 145 NaCl, 5 KCl, 1 CaCl2, 1 MgCl2, 10 HEPES; pH=7.3) containing Fluo-4/AM (2 μM; Molecular Probes). […] Changes in cytosolic calcium were monitored over time at 1.0 Hz frame rate. […] All cells in a given field of view were marked as individual regions of interest (ROIs), and the relative fluorescence intensity for each ROI was calculated and processed as a function of time.

NCCc1ccccc1 [2-phenylethylamine]
carnivore odor-selective neurons that responded to 2-phenylethylamine (neurons activated by 100:1 lion urine): 10/18
carnivore odor-selective neurons that responded to 2-phenylethylamine (neurons activated by 10,000:1 lion urine): 13/21
